AlphaSeq binding of Ab-14 light chain variants to a spike HR2 peptide

The measurements come from Engelhart et al. 2022 (doi:10.1038/s41597-022-01779-4) through the FLAb antibody collection.

Binding partner: SARS-CoV-2 spike HR2 peptide, sequence PDVDLGDISGINAS.

Each scFv is VH, the linker GGGGSGGGGSGGGGS, VL, as in the parent Ab-14, and differs from it in the CDRs of the light chain only.
VH: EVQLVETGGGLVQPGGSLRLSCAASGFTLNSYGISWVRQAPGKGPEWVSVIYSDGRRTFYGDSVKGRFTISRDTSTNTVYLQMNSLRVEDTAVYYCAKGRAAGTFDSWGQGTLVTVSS
VL: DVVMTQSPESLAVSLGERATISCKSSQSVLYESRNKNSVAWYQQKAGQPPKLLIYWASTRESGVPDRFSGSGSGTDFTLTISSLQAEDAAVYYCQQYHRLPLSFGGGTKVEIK

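The parent was found by panning a naive human phage display library on the peptide. Variants in AAYL50 differ from the parent at up to three CDR positions; double and triple changes were sampled at random. AlphaSeq pools MATa yeast showing the antibodies with MATalpha yeast showing the peptide. The frequency of each diploid, read from paired DNA barcodes, reflects how well the two displayed proteins bind. A regression on co-assayed BCL2-family reference pairs converts the normalised counts of each replicate to an apparent Kd. There are three technical replicates.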

Changes read parent residue, position, new residue, counted from the first residue of the VL shown.
This list gathers variants with a substitution at T59 (VL, numbered from residue 1).
Affinities are written as log10 Kd with Kd in nM; a lower number is a better binder.
A mean of the replicates is given; it leaves out those without a signal.
A pair that was not seen in any replicate is written "nd"; this usually means weak binding, but a binder can also be missed.
As a blank, each scFv also met three strains without target: over library AAYL50, 18% of these pairings were detected, typically at 4.19 and seldom below 2.99.

- A57G T59Y S103E -> 1.84 (3 of 3 replicates)
- S26V T59H Q95D -> 5.38 (1 of 3 replicates)
- S38I T59L L102A -> nd (0 of 3 replicates)
- S28H Y31E T59V -> 0.85 (3 of 3 replicates)
- S38Q T59L L102T -> 4.54 (2 of 3 replicates)
- Y31C T59N -> 2.01 (3 of 3 replicates)
- L30G W56Q T59E -> 0.09 (3 of 3 replicates)
- W56G T59W R99H -> 0.31 (3 of 3 replicates)
- A40T T59K L100R -> nd (0 of 3 replicates)
- V29Q K36A T59H -> nd (0 of 3 replicates)
- E32G T59N Y97I -> 1.79 (3 of 3 replicates)
- S26V N37F T59F -> nd (0 of 3 replicates)
- A40P T59S -> 4.66 (2 of 3 replicates)
- N37C V39K T59E -> nd (0 of 3 replicates)
- K24E T59P Q95K -> 3.79 (1 of 3 replicates)
- S26Q Y31N T59E -> 4.51 (3 of 3 replicates)
- W56M T59A -> 0.99 (3 of 3 replicates)
- V29K R34F T59V -> 0.62 (3 of 3 replicates)
- K36C N37Q T59M -> 2.19 (3 of 3 replicates)
- E32C T59W Q96P -> nd (0 of 3 replicates)
- Y31I T59I Q95R -> nd (0 of 3 replicates)
- S33C T59Q Q95I -> 3.52 (3 of 3 replicates)
- W56V T59W E61N -> 4.83 (1 of 3 replicates)
- R34M S58W T59A -> 2.01 (3 of 3 replicates)
- S28H T59W R99S -> 4.74 (1 of 3 replicates)
- S28H V39C T59A -> nd (0 of 3 replicates)
- S28Y T59A E61Q -> 3.61 (3 of 3 replicates)
- S33C T59G S103F -> nd (0 of 3 replicates)
- T59V Q96N H98N -> 2.28 (3 of 3 replicates)
- N35G A57C T59I -> 2.82 (2 of 3 replicates)
- S26F A57H T59G -> nd (0 of 3 replicates)
- A57D T59Q Q96N -> 2.09 (1 of 3 replicates)
- K24L T59N Q96E -> 4.98 (2 of 3 replicates)
- R34G T59H R60S -> 2.84 (3 of 3 replicates)
- K24W A40N T59C -> 2.10 (3 of 3 replicates)
- K36D T59L S62F -> 0.83 (3 of 3 replicates)
- Y31Q N37T T59Y -> 2.55 (1 of 3 replicates)
- V29H T59R S103Q -> 2.98 (2 of 3 replicates)
- N35D T59F L102E -> nd (0 of 3 replicates)
- T59G E61A Q95K -> nd (0 of 3 replicates)
- S28M N35H T59H -> 2.01 (3 of 3 replicates)
- V29M L30I T59S -> 2.70 (3 of 3 replicates)
- Q27P S33G T59N -> 1.51 (3 of 3 replicates)
- E32H R34M T59C -> 1.54 (3 of 3 replicates)
- S28E V29I T59E -> 0.73 (3 of 3 replicates)
- Q27P T59M Q95S -> 2.14 (3 of 3 replicates)
- L30I T59F S103V -> 2.01 (3 of 3 replicates)
- S58H T59I -> 1.39 (3 of 3 replicates)
- S26L K36W T59L -> 1.31 (3 of 3 replicates)

Picked from the list: the 5 lowest averages where every replicate gave a value.

- L30G W56Q T59E -> 0.09 (3 of 3 replicates)
- W56G T59W R99H -> 0.31 (3 of 3 replicates)
- V29K R34F T59V -> 0.62 (3 of 3 replicates)
- S28E V29I T59E -> 0.73 (3 of 3 replicates)
- K36D T59L S62F -> 0.83 (3 of 3 replicates)

For reference, the parent read 0.65 as the reference entry and 1.68 as a member of this library.